This is a selection; strong and weak results do not stand in their true shares. The source made the active and inactive calls.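 How the source made its calls: active means mean inhibition across valid replicates above about 55% (limit read from the data); inconclusive means mean below that limit but half or more replicates reach it; inactive means mean below it, under half of replicates reach it.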
Experiment: Trypanosoma cruzi replication blockers in host cells – luminescence, NIH3T3 host cells, primary screen (AID 1885);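 further: signal also drops with host cell toxicity which is not excluded here; 0% = plate median of DMSO wells and 100% = zero luminescence signal; higher percent means less beta-gal luminescence so fewer parasites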
Settings: T. cruzi beta-gal in NIH3T3, luminescence, 90 h; stronger effect = higher value; concentration not given here
Procedure, shortened: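 System: mouse NIH/3T3 fibroblasts infected with β-gal-expressing T. cruzi Tulahuen C4 / Input: NIH/3T3 cells, 5,000 per well / Buffer or medium: Low-serum DMEM with 2% FBS / Probe or stimulus: 5000 reporter trypomastigotes per well / Schedule: ≥90 h infection period, 3 h prior cell attachment / Measured by: GalScreen luminescence, 60 min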

SMILES | inhibition
Nc1cc(N)c2nonc2c1[N+](=O)[O-] | inactive: -2.58%
CC(C)CC(=O)NC(Sc1ccc(Cl)cc1)C(Cl)(Cl)Cl (centres undefined) | inactive: 19.3%
COc1ccc(OP(C)(=O)Nc2ccccc2Br)cc1 (centres undefined) | inactive: -42.1%
Cc1cc(SC(NC(=O)c2ccc(F)cc2)C(Cl)(Cl)Cl)ncn1 (centres undefined) | inactive: -2.37%
CCOP(=O)(Nc1ccccc1)OCC | inactive: 0.986%
COc1ccccc1OP(C)(=O)Nc1ccc(C)c(C)c1 (centres undefined) | inactive: 7.16%
Cc1ccc(NP(=O)(Oc2ccccc2F)Oc2ccccc2F)nc1 | inactive: -5.34%
CN(C(=O)Cc1ccc(Cl)c(Cl)c1)[C@H]1CCCC[C@@H]1N1CCCC1 | inactive: 17.9%
O=P(Nc1nc2ccc(Cl)cc2s1)(c1ccccc1)c1ccccc1 | inactive: -24%
Cc1cc(C)cc(OP(C)(=O)Nc2cccc(C(F)(F)F)c2)c1 (centres undefined) | inactive: 32.3%
CC(=O)Nc1ccc([As](=O)(O)O)cc1 | inactive: -3.49%
O=C(O)c1ccccc1[As](=O)(O)O | inactive: -9.06%
Nc1cccc2ccc([As](=O)(O)O)cc12 | inactive: -10.8%
CP(=O)(Nc1ccc(Cl)cc1Cl)Oc1ccccc1 (centres undefined) | inactive: -10.2%
CP(=O)(OCCOc1ccccc1)OCCOc1ccccc1 | inactive: -4.19%
CCN(N=Nc1nonc1N)c1nonc1N | inactive: -10.7%
O=[N+]([O-])c1cc([N+](=O)[O-])c(CCN2CCOCC2)c([N+](=O)[O-])c1 | inactive: 29.9%
Cc1nc2ccc3ccccc3c2o1.O=[N+]([O-])c1cc([N+](=O)[O-])c(O)c([N+](=O)[O-])c1 | inactive: 52%
Cc1ccc(OP(=O)(Nc2ccc([N+](=O)[O-])cn2)Oc2ccc(C)cc2)cc1 | inactive: 4.65%
CC(C)(C)c1ccc(OP(C)(=O)Nc2ccc(SC(F)(F)F)cc2)cc1 (centres undefined) | active: 65%
Cc1cccc(C)c1OP(C)(N)=O (centres undefined) | inactive: 0.387%
O=[N+]([O-])c1ccc2c(c1)C=Nc1ccccc1O2 | inactive: -17.5%
Cc1ccc2nc3c(c(C)c2c1)CC(C(Cl)Cl)S3 (centres undefined) | inactive: -5.59%
O=[N+]([O-])c1cc([N+](=O)[O-])c(Nc2cccnc2)c([N+](=O)[O-])c1 | inactive: 44.8%
C[As](=O)(O)c1cccc(C(=O)O)c1 | inactive: -4.82%

SMILES | inhibition
O=[As](O)(c1ccc(O)cc1)c1ccccc1O | inactive: -5.63%
COc1ccccc1OP(C)(=O)Nc1cc(Cl)ccc1C (centres undefined) | inactive: -5.66%
CC(C)NC(=O)NP(=O)(Oc1ccccc1)Oc1ccccc1 | inactive: -16.5%
COc1ccc(OP(C)(=O)Nc2cccc(F)c2)cc1 (centres undefined) | inactive: -3.62%
Cc1cc(C)cc(OP(C)(N)=O)c1 (centres undefined) | inactive: -10.4%
CCOC(=O)c1ccc(NP(C)(=O)Oc2ccccc2)cc1 (centres undefined) | inactive: 4.61%
ClCCSc1nnc(-c2cccnc2)o1 | inactive: -7.74%
COc1ccccc1OP(C)(=O)Nc1ccc(C)cc1 (centres undefined) | inactive: -19.9%
Cc1ccc(NP(C)(=O)Oc2ccccc2)c(C)c1 (centres undefined) | inactive: -10.4%
CC(C)c1ccc(OP(=O)(Nc2ccccn2)Oc2ccccc2F)cc1 (centres undefined) | inactive: -10.8%
COc1ccc2nc(NP(=O)(c3ccccc3)c3ccccc3)sc2c1 | inactive: -1.02%
COc1cc(I)ccc1[As](=O)(O)O | inactive: 1.91%
Cc1c2c(nc3ccccc13)SC(C(Cl)Cl)C2 (centres undefined) | inactive: 26.2%
O=C(OC1CN2CCC1CC2)C12CC3CC(CC(C3)C1)C2 (centres undefined) | inactive: 18.4%
Cc1cc(=O)[nH]c(N[N+](=O)[O-])n1 | inactive: -20.4%
CCN(CC)CCCOC(=O)C(O)(c1ccccc1)c1ccccc1 | inactive: -13.1%
COc1ccc(N/C(=N/P(=O)(N2CCOCC2)N2CCOCC2)N2CCOCC2)cc1 | inactive: -5.42%
O=C(COc1ccccc1)OC1CN2CCC1CC2 (centres undefined) | inactive: -3.49%
CP(=O)(NC(=O)Nc1ccccc1)Oc1ccccc1 (centres undefined) | inactive: -13.1%
CCc1ccc(OP(C)(=O)N2CCN(c3ccc([N+](=O)[O-])cc3)CC2)cc1 (centres undefined) | inactive: 9.16%
O=C(Nc1ccncc1[N+](=O)[O-])c1ccc([N+](=O)[O-])cc1[N+](=O)[O-] | inactive: 18.2%
Cc1cc(C)cc(OP(C)(=O)Nc2ccc(SC(F)(F)F)cc2)c1 (centres undefined) | inactive: 22.6%
COP1(=S)c2c(C)nn(CCC#N)c2N=C(c2ccc(F)cc2)N1C (centres undefined) | inactive: 0.252%
Cc1cccc(C)c1OP(C)(=O)Nc1ccc(SC(F)(F)F)cc1 (centres undefined) | inactive: 19%
CP(=O)(Nc1ccc(SC(F)(F)F)cc1)Oc1ccc(Cl)cc1 (centres undefined) | inactive: 35.8%

SMILES | inhibition
CP(=O)(Oc1ccccc1)OC(c1ccccc1)C(F)(F)F (centres undefined) | inactive: -15.9%
CP(=O)(Nc1ccccn1)Oc1ccc(Cl)cc1 (centres undefined) | inactive: -10%
CCOP(C)(=S)SCC(=O)NC(C)C(=O)O (centres undefined) | inactive: -8.94%
O=C(OC1CN2CCC1CC2)c1cccc([N+](=O)[O-])c1 (centres undefined) | inactive: -6.86%
CCOC(=O)c1ccc(NC(=O)C(C)(CCl)SC)cc1 (centres undefined) | inactive: -12.5%
CCOC(=O)c1ccc(NP(C)(=O)Oc2ccc(OC)cc2)cc1 (centres undefined) | inactive: -13%
O=[N+]([O-])c1cc([N+](=O)[O-])c(O)c([N+](=O)[O-])c1.c1ccc(Oc2ccncc2)cc1 | inactive: 2.4%
CCCCOc1ccc(C(=O)NCC2(N3CCCCC3)CCCCC2)cc1OC | inactive: 8.49%
Cc1cc(SC(NC(=O)c2ccccc2)C(Cl)(Cl)Cl)nc(C(C)C)n1 (centres undefined) | inactive: -8.72%
CCOC(=O)Nc1ccc([As](=O)(O)O)c(O)c1 | inactive: 2.5%
O=P(Nc1ccccn1)(c1cccc2ccccc12)c1cccc2ccccc12 | inactive: 6.27%
Cc1cc(SC(NC=O)C(Cl)(Cl)Cl)ncn1 (centres undefined) | inactive: -2.66%
COc1ccccc1OP(C)(=O)Nc1ccccc1 (centres undefined) | inactive: -9.43%
CP(=O)(Nc1ccccc1Br)Oc1ccccc1 (centres undefined) | inactive: -10.5%
O=[N+]([O-])c1ccc(Nc2ccc(Oc3ccc([N+](=O)[O-])cc3[N+](=O)[O-])cc2)c([N+](=O)[O-])c1 | inactive: -5.39%
CP(=S)(Nn1cnnc1)Oc1ccccc1 (centres undefined) | inactive: -8.72%
CCOC(=O)Nc1cccc([As](=O)(O)O)c1 | inactive: -18%
CN(C)C1(CNC(=O)c2ccc(S(C)(=O)=O)cc2)CCCCC1 | inactive: 0.554%
O=[N+]([O-])c1cc([N+](=O)[O-])c(Nc2nnnn2CCO)c([N+](=O)[O-])c1 | inactive: 8%
CCOC(=O)C(CC)C1=NC(C)(C)Cc2ccccc21.O=[N+]([O-])c1cc([N+](=O)[O-])c(O)c([N+](=O)[O-])c1 (centres undefined) | inactive: -8.37%
O=C(/C=C/c1ccccc1)OC1CN2CCC1CC2 (centres undefined) | inactive: 11.9%
Cc1nn(-c2ccccc2)c2c1P(=O)(N1CCOCC1)N(C)C(c1ccccc1)=N2 (centres undefined) | inactive: -8.66%
CC1CCC(C(C)C)C(OP(=O)(Nc2ccccn2)c2ccccc2)C1 (centres undefined) | inactive: 8.94%
Cc1ccc(C(=O)OC2CN3CCC2CC3)cc1 (centres undefined) | inactive: -9.5%
COc1cc(C2NCCC3(OCCO3)C2(C)C)cc(OC)c1OC.O=[N+]([O-])c1cc([N+](=O)[O-])c(O)c([N+](=O)[O-])c1 (centres undefined) | inactive: 10.5%

SMILES | inhibition
CCCOc1ccc(NP(C)(=O)Oc2ccc(Cl)cc2)cc1 (centres undefined) | inactive: 26%
CP(=O)(Nc1ccc(SC(F)(F)F)cc1)Oc1ccccc1 (centres undefined) | inactive: 3.24%
Nc1cccc([As](=O)(O)c2ccccc2)c1 | inactive: -9.84%
Cc1ccc(OCC(=O)OC2CN3CCC2CC3)cc1 (centres undefined) | inactive: -5.47%
O=[As](O)(c1cccs1)c1cccs1 | inactive: 6.84%
O=P1(Nc2ccc(Br)cn2)COc2ccccc2OC1 | inactive: 2.92%
COc1ccccc1OP(C)(=O)Nc1c(C)cccc1C (centres undefined) | inactive: -10.6%
CN1CCCCC1COC(=O)C1(O)c2ccccc2CCc2ccccc21 (centres undefined) | inactive: 2.19%
O=P1(Nc2ncccn2)COc2ccccc2OC1 | inactive: -10.6%
Clc1n[nH]nc1-c1nn[nH][15n]1 | inactive: -12.1%
CC(C)(C)C(=O)NC(Sc1ncccn1)C(Cl)(Cl)Cl (centres undefined) | inactive: 0.0862%
O=P1(Nc2ccccn2)COc2ccccc2OC1 | inactive: -1.92%
O=[N+]([O-])c1cc([N+](=O)[O-])c(-n2nnc3ccccc32)c([N+](=O)[O-])c1 | inactive: -17.7%
CCOP(=O)(NC(=NC(C)c1ccccc1)NC(C)c1ccccc1)OCC (centres undefined) | inactive: -0.582%
CCOP(=O)(Nc1ccc(C)cn1)OCC | inactive: 3.76%
CN(CCCl)Cc1cc(Cl)c(NC2=NCCN2)c(Cl)c1 | inactive: -33.7%
CC(C)/C=N\N=C(\N)N[N+](=O)[O-] | inactive: 7.41%
CN(C(=O)Cc1ccc(Cl)c(Cl)c1)[C@@H]1CCCC[C@H]1N1CCCC1 | inactive: 30.7%
O=[As](O)(c1ccccc1Br)c1ccccc1Br | inactive: -9.31%
CC1(CBr)Cn2c(nc3ccccc3c2=O)S1 (centres undefined) | inactive: -17.4%
O=[N+]([O-])c1cc([N+](=O)[O-])c(-c2cnn(-c3ccccc3)c2)c([N+](=O)[O-])c1 | active: 57.4%
COc1ccccc1CNC(=O)COC(=O)C(O)(c1ccccc1)c1ccccc1 | inactive: -8.22%
Cc1cccc(OCC(=O)OC2CN3CCC2CC3)c1 (centres undefined) | inactive: -50.7%
O=[As](O)(c1cccc(O)c1)c1cccc(O)c1 | inactive: -6.91%
